Chains of the proteins cited; added tags and fusions are not shown. Residues count along the entry.
UniProt P00586, 2-297 limits assumed: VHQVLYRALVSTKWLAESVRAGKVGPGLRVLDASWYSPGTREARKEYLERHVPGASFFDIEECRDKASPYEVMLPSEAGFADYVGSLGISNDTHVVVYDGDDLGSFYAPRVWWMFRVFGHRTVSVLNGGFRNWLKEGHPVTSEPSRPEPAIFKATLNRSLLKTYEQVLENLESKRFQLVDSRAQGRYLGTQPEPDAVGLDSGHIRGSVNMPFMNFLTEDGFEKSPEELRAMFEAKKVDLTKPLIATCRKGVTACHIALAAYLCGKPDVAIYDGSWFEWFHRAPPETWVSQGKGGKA

In patent US10238609B2, “Cyanide antidote compositions and methods of use” (dated 2019):

Key:
rhodanese = rhodanese (Bos taurus, UniProt P00586); test: In vitro conversion of potassium cyanide (KCN) to SCN by sulfur analogs in the presence of rhodanese; settings: for rate of conversion of potassium cyanide to SCN, Rhodanese present: Rhodanese present (0.595 Units), 0.2 mL of 0.125 mM sulfur analog, 250 mM KCN, 5 minute incubation, colour at 464 nm
[1] = In vitro conversion of potassium cyanide (KCN) to SCN by sulfur analogs in the absence of rhodanese; settings: 0.2 mL of 0.125 mM sulfur analog, 250 mM KCN, 5 minute incubation, colour at 464 nm

SMILES	rate of conversion of potassium cyanide to SCN, Rhodanese present (rhodanese)	factor faster conversion of cyanide to SCN as compared to sodium thiosulfate (rhodanese; in the presence and absence of rhodanese, relative to sodium thiosulfate) [times]	rate of conversion of potassium cyanide to SCN, No Rhodanese [1]
Cc1ccc(S(=O)(=O)SSSS(=O)(=O)c2ccc(C)cc2)cc1	0.16 mM of SCN/min	≥ 10	0.158 mM of SCN/min
O=S(O)(O)=S	0.005 mM of SCN/min		0.0029 mM of SCN/min
